{"source": "PubChem BioAssay AID624263", "about": "(National Center for Advancing Translational Sciences (NCATS), 2012)", "note": "Among all 410,000 compounds or so, about 820 (0.2%) were called active. Only results without a clear call are listed here; the source files them as inconclusive. Calls come from the whole dose curve; as a rule, active = well fitted activation curve with a large enough effect; inconclusive = small, poorly fitted or top-dose-only effect; inactive = flat fitted curve, though single readings scatter; cell line not stated here. Potency is the fitted concentration of half-maximal effect.", "data": [{"test": "A Quantitative High throughput Screen to Identify Chemical Modulators of PINK1 Expression; note: nearly all actives have a fitted effect of over 65% in size", "settings": "PINK1 immunofluorescence, high-content cytometry, 24 h", "values": [{"molecule": "O=P(Nc1nc2ccc(Cl)cc2s1)(c1ccccc1)c1ccccc1", "Potency": "inconclusive: 50.1 µM"}, {"molecule": "N#C/C(=C\\c1ccc(N(CCBr)CCBr)cc1)C(N)=O", "Potency": "inconclusive: 50.1 µM"}, {"molecule": "O=[N+]([O-])c1ccc(O)c(/C=N/Nc2ccc([N+](=O)[O-])cc2[N+](=O)[O-])c1", "Potency": "inconclusive: 3.55 µM"}, {"molecule": "CSc1ccc(Nc2c([N+](=O)[O-])cc([N+](=O)[O-])cc2[N+](=O)[O-])cc1", "Potency": "inconclusive: 28.2 µM"}]}]}
